This note sets out measurements from patent US11473045B2, “Device for in-vitro modelling in-vivo tissues of organs” (priority 2013, dated 2022).

The test system of the series is Lung bronchial epithelial cells (16HBEo-). Here is the method: FIG. 14 illustrates the effects of a physiologic (10% linear), cyclic mechanical strain on the permeability of an epithelial barrier. Lung bronchial epithelial cells (16HBEo-) were seeded at a density of 250'000 cells/cm^2 onto the fibronectin-coated culturing membrane. The cells were allowed to adhere and to grow for 72 h. The cells were exposed to cyclic strain (10% linear, 0.2 Hz) for 19 h, whereas the control was kept at static conditions. […] After 2 h of incubation, the permeability of each molecule was measured with a fluorescence multiplate reader (Tecan Infinite M1000; Ex:460/Em:515 & Ex:553/Em:627).

As to RITC-Dextran, the “transmembrane permeability of stretched cells compared to control cells in static conditions” value is “no significant permeability differences”.
